Assay results reported in ChEMBL document CHEMBL3638545 (2015).

The chains behind the UniProt entries cited, without tags or fusion partners.
UniProt Q15858, whole entry: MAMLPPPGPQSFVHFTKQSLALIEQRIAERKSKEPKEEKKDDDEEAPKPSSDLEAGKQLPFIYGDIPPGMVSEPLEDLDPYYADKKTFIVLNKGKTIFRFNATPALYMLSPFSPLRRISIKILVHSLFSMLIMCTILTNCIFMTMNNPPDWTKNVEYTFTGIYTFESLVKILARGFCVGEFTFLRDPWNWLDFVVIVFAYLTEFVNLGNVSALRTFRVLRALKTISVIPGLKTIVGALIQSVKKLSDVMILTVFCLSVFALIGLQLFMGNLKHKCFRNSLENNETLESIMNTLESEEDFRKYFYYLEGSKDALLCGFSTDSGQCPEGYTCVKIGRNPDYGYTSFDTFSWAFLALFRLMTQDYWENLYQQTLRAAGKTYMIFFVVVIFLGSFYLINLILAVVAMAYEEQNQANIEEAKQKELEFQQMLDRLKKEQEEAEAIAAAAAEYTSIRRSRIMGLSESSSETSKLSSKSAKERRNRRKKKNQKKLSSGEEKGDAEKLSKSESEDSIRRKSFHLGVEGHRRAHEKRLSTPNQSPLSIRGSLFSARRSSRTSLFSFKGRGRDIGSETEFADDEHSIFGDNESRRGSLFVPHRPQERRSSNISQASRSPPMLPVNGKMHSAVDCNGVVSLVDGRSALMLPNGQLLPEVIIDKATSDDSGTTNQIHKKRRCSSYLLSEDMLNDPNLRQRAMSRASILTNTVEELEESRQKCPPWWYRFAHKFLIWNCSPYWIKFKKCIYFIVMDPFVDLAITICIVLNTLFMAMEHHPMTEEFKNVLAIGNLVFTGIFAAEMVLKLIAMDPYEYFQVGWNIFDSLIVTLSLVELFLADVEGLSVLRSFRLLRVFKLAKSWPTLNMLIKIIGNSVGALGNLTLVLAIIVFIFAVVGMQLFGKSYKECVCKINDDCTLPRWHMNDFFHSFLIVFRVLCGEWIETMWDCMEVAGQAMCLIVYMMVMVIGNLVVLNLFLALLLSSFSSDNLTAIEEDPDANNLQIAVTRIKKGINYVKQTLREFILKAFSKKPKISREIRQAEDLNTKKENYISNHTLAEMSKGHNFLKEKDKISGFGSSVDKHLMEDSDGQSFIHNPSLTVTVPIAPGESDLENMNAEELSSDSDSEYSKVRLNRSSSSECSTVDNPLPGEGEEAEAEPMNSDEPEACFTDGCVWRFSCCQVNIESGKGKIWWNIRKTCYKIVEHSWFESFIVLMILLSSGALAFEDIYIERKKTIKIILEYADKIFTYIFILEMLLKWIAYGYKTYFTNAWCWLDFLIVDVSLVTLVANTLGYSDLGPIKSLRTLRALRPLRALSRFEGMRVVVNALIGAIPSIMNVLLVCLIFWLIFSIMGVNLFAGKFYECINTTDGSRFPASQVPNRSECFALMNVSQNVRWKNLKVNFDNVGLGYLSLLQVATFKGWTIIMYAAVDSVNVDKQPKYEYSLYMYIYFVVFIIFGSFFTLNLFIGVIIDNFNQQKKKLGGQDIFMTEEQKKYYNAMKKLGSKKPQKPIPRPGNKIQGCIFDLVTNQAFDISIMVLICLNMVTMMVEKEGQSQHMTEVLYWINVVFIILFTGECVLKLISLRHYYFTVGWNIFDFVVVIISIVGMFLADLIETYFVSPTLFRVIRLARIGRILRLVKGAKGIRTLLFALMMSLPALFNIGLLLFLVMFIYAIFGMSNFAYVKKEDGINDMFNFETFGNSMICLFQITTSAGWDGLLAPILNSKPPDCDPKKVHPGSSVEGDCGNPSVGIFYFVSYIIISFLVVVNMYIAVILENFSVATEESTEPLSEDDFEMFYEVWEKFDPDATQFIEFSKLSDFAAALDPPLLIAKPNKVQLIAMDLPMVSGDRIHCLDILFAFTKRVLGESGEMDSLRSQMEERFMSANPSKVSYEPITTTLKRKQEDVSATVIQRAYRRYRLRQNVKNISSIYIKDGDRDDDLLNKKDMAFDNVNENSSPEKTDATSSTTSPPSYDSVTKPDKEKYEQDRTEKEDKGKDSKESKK

Key:
[1] = target: T1, Sodium channel protein type 9 subunit alpha (Homo sapiens, UniProt Q15858); assay type: cell-based, HEK293
[2] = target: T1, Sodium channel protein type 9 subunit alpha; experiment: Radioligand Binding Assay: Radioligand Binding Studies: Saturation experiments. A representative compound of formula (I) was tritiated. Three tritiums were incorporated in place of methyl hydrogens to generate [3H]compound. Binding of this radioligand was preformed in 5 mL borosilicate glass test tubes at room temperature. Binding was initiated by adding membranes to increasing concentrations of [3H]compound in 100 mM NaCl, 20 mM Tris HCl, pH 7.4 buffer containing 0.01% w/v bovine serum albumin (BSA) for 18 h. Non-specific binding was determined in the presence of 1 uM unlabelled compound. After 18 h, the reactants were filtered through GF/C glass fiber filters presoaked in 0.5% w/v polyethylene imine. […] [3H]compound bound to filters was quantified by liquid scintillation counting.Competitive binding experiments.

Row | IC50 [1] | IC50 [2] | SMILES
1 | 356 nM | – | CS(=O)(=O)NC(=O)c1cc(Cl)c(NCC23CC4CC(CC(C4)C2)C3)cc1F
2 | – | 100 nM | COCCS(=O)(=O)NC(=O)c1cc(C2CC2)c(OCC2CCCC2)cc1F
3 | 10 nM | 4 nM | CC1(COc2cc(F)c(C(=O)NS(=O)(=O)C3CC3)cc2C2CC2)CCC(F)(F)CC1
